{"sequences": {"note": "The chains behind the UniProt entries cited, without tags or fusion partners.", "UniProt P70627, whole entry": "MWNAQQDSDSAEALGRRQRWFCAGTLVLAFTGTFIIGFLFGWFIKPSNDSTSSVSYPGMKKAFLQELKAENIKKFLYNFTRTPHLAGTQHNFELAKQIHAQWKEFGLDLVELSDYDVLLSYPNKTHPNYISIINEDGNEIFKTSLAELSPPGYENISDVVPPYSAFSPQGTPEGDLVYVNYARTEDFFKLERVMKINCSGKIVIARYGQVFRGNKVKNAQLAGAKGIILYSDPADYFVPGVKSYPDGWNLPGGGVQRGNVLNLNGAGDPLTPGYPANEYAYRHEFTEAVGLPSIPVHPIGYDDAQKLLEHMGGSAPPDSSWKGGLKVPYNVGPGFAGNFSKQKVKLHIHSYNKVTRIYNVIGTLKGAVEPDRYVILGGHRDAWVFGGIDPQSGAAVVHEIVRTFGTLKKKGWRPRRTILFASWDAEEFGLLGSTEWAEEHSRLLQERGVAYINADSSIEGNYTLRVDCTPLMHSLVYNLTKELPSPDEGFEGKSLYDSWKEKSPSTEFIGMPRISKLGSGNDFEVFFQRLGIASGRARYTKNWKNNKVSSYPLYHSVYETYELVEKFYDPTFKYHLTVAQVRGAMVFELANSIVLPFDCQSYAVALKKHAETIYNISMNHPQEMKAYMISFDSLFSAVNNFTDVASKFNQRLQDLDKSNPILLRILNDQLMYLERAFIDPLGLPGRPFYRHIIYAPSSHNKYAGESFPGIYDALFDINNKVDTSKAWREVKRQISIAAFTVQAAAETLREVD"}, "source": "patent US6121252A", "about": "“Phosphinic acid derivatives” (priority 1998, dated 2000)", "target": "T1, NAALADase (Rattus norvegicus, UniProt P70627)", "T1 construct": "synaptosomal protein; from tissue; host or cells: synaptosomes (brain tissue)", "assay": "In vitro inhibition of NAALADase activity", "assay_type": "biochemical", "from_the_text": "\"Inhibition\", in the context of enzymes, refers to reversible enzyme inhibition such as competitive, uncompetitive and non-competitive inhibition. Competitive, uncompetitive and non-competitive inhibition can be distinguished by the effects of an inhibitor on the reaction kinetics of an enzyme. […] The affinity between the inhibitor and the enzyme may be measured by the inhibitor constant, Ki, which is defined as: [formula] wherein [E] is the concentration of the enzyme, [I] is the concentration of the inhibitor, and [EI] is the concentration of the enzyme-inhibitor complex formed by the reaction of the enzyme with the inhibitor. Unless otherwise specified, Ki as used herein refers to the affinity between the inventive compounds and NAALADase.\nVarious compounds of formula I were tested for in vitro inhibition of NAALADase activity.\nSubstrate and product were resolved by anion-exchange liquid chromatography. […] Quisqualate (100 μM) was included in parallel assay tubes to confirm the specificity of the measurements.", "data": [{"smiles": "O=C(O)CCC(CP(=O)(O)CNc1ccccc1)C(=O)O", "note": "(stereo not shown)", "values": [{"measurement": "Ki", "value": 6.3, "unit": "nM"}]}]}
